Laboratory results: PubChem BioAssay AID781 (Emory University Molecular Libraries Screening Center, 2007)
This is a selection; strong and weak results do not stand in their true shares. Calls of active or inactive are those of the source.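 How the source made its calls: active means inhibition above about 70% (limit read from the data); inactive means the rest.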

By UniProt entry, the sequences of proteins in these tests, tags left out.
UniProt P63103, whole entry: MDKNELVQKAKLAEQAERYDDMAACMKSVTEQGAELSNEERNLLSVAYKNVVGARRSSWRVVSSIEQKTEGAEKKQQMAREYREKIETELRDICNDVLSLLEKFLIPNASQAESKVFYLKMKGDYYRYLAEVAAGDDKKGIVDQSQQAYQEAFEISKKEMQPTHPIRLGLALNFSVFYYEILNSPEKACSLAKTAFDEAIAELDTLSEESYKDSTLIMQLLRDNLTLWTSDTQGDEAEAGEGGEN

Molecular target: 14-3-3 protein zeta/delta (Bos taurus) (UniProt P63103)
Experiment: disruptors of 14-3-3 zeta phospho-Bad complex – biochemical, TR-FRET, bovine 14-3-3 zeta, primary screen (AID 781);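 further: 0% = full 14-3-3 plus peptide FRET controls and 100% = background without 14-3-3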
Details: TR-FRET 14-3-3zeta/Dy647-pBad peptide displacement, 1 h; at 21.7 µM; active compounds read high

Structure (SMILES)	inhibition
CP(=O)(OC12CC3CC(CC(C3)C1)C2)OC12CC3CC(CC(C3)C1)C2	inactive: 6.17%
CCOC(=O)c1ccc(NP(C)(=O)Oc2ccc(Cl)cc2)cc1 (stereo not drawn)	inactive: 6.01%
CN(C)C(=O)c1c([N+](=O)[O-])cc([N+](=O)[O-])cc1[N+](=O)[O-]	inactive: -23.4%
CP(=O)(Nc1ccc(Cl)cc1)Oc1ccc(F)cc1 (stereo not drawn)	inactive: -6.77%
COc1ccccc1OP(C)(=O)Nc1ccccc1Br (stereo not drawn)	inactive: -5.33%
CCc1ccc(OP(C)(=O)Nc2cccnc2)cc1 (stereo not drawn)	inactive: -3.07%
CP(=O)(Oc1ccccc1)N1CCOC1=O (stereo not drawn)	inactive: -5.81%
O=C(OCCCN1CCCC1)C(O)(c1ccccc1)C1CCCCC1 (stereo not drawn)	inactive: -2.29%
COc1ccc(OP(C)(=O)Nc2ccc(Br)cc2)cc1 (stereo not drawn)	inactive: -2.06%
CCN(CC)CC(O)COC(=O)C(O)(c1ccccc1)C1CCCCC1 (stereo not drawn)	inactive: 0.94%
CCc1ccc(OP(C)(=O)O)cc1	inactive: 7.26%
COc1ccccc1OP(C)(=O)Nc1ccc(C)cc1C (stereo not drawn)	inactive: -0.69%
CP(=O)(Nc1ccccn1)Oc1ccccc1 (stereo not drawn)	inactive: 4.31%
O=[N+]([O-])c1cc([N+](=O)[O-])c(Nc2ccccn2)c([N+](=O)[O-])c1	inactive: -8.33%
Cc1c(NP(C)(=O)Oc2ccc(C(C)C)cc2)c(=O)n(-c2ccccc2)n1C (stereo not drawn)	inactive: -12.6%
CN(C)CCOC(=O)C(O)(c1ccccc1)C1CCCC1 (stereo not drawn)	inactive: 14%
COc1ccc(OP(C)(=O)Nc2ccccn2)cc1 (stereo not drawn)	inactive: -1.28%
COc1ccccc1OP(C)(=O)Nc1ccc(Br)cc1 (stereo not drawn)	inactive: 0.39%
CP(=O)(OCCOc1ccccc1)OCCOc1ccccc1	inactive: -1.3%
CP(=O)(Nc1ccc(Cl)cc1Cl)Oc1ccccc1 (stereo not drawn)	inactive: -5.13%
Cc1nc2ccc3ccccc3c2o1.O=[N+]([O-])c1cc([N+](=O)[O-])c(O)c([N+](=O)[O-])c1	inactive: 52.2%
COc1ccc(OP(C)(=O)Nc2ccccc2Br)cc1 (stereo not drawn)	inactive: -6.46%
COc1ccccc1OP(C)(=O)Nc1ccc(C)c(C)c1 (stereo not drawn)	inactive: -4.88%
Cc1cc(C)cc(OP(C)(=O)Nc2cccc(C(F)(F)F)c2)c1 (stereo not drawn)	inactive: -7.96%
CCCCCOc1ccc(NP(C)(=O)Oc2ccc(Cl)cc2Cl)cc1 (stereo not drawn)	inactive: 22%
CP(=O)(Nc1ccccc1)Oc1ccc(F)cc1 (stereo not drawn)	inactive: 3.03%
CCN(CC)CCCOC(=O)C(O)(c1ccccc1)C1CCCCC1 (stereo not drawn)	inactive: -0.14%
COc1ccc(OP(C)(=O)Nc2ccc(SC(F)(F)F)cc2)cc1 (stereo not drawn)	inactive: -9.85%
